These results are taken from PubChem BioAssay AID588391 (Broad Institute, 2011).

Chains of the proteins cited; added tags and fusions are not shown. Lines headed by an entry give the natural chain unless they say otherwise; changes in a name come on top.
UniProt P07237: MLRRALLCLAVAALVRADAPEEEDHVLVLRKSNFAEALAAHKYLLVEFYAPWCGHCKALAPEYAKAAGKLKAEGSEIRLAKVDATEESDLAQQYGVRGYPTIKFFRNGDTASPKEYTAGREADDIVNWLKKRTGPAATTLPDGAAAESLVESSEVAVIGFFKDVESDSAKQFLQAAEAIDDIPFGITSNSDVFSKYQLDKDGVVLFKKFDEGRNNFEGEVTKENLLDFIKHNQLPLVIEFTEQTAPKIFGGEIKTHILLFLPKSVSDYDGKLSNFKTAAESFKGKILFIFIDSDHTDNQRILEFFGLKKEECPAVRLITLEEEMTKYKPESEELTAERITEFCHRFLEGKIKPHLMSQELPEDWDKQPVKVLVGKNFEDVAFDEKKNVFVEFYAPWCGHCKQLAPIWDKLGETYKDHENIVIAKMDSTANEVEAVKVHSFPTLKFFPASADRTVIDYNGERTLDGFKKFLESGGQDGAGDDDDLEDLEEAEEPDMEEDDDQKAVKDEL

The structures appear in SMILES notation. The list shows a part of the results, in another mix than the full data. Active and inactive are the calls of the source.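 The calls were made as follows: active = mean inhibition across replicates of 30% or more, whatever share of single replicates reach that level; inconclusive = mean inhibition below 30% while every single replicate reaches 30%; inactive = the rest.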

The target of this assay is Protein disulfide-isomerase (Homo sapiens) (UniProt P07237). In words: inhibitors of human PDI, primary screen, biochemical, turbidity, single point, plate reader (AID 588391).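 Also: absorbance from insulin aggregation driven by PDI reduction with DTT.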 To be noted: PDI insulin aggregation turbidity, A650, 90 min; at 10 µM; active compounds read high.
For orientation: inhibition means the change of the read-out against control, counted positive when it falls. As to `COC(=O)C1(C)COP(=O)(N2CCCCCC2)OC1` (stereo unspecified), the inhibition is inactive: 1.12%.
Take `CCN(CC)C(=S)SC(NC=O)C(Cl)(Cl)Cl` (stereo unspecified): the inhibition is inactive: 1.37%.
To `O=C(OC1CN2CCC1CC2)c1cccc2[nH]cnc12` (stereo unspecified) belongs inactive: 0.127%; to `CC(C)NC(=O)NP(=O)(Oc1ccccc1)Oc1ccccc1`, inactive: 3.93%.
The same measure for `O=[N+]([O-])c1cc([N+](=O)[O-])c(-c2ccn[nH]2)s1`: inactive: 1.12%.
To `O=C(O)C(O)c1ccc(N(CCCl)CCCl)cc1` (stereo unspecified) belongs inactive: 4.69%; to `CCOC(=O)Nc1ccc([As](=O)(O)O)c(O)c1`, inactive: 3.03%; to `CC1CCNP(=O)(N(CCCl)CCCl)O1` (stereo unspecified), inactive: 4.34%.
For the compound `COP(=O)(OC)N1CC1c1ccccc1` (stereo unspecified), the inhibition was inactive: -2.08%.
With `CCCCOc1ccc(C(=O)NCC2(N3CCCCC3)CCCCC2)cc1OC`, the inhibition is inactive: -10.9%.
Regarding `Cc1cc(SC(NC(=O)c2ccccc2)C(Cl)(Cl)Cl)nc(C(C)C)n1` (stereo unspecified), the inhibition is inactive: -6.78%.
The same measure for `CCOC(=O)Nc1cccc([As](=O)(O)O)c1`: inactive: -5.55%.
To `Cc1cc(SC(NC=O)C(Cl)(Cl)Cl)ncn1` (stereo unspecified) belongs inactive: -3.73%; to `O=P(Nc1ccccn1)(c1cccc2ccccc12)c1cccc2ccccc12`, inactive: 1.82%; to `O=[N+]([O-])c1ccc(Nc2ccc(Oc3ccc([N+](=O)[O-])cc3[N+](=O)[O-])cc2)c([N+](=O)[O-])c1`, inactive: 0.088%.
The same measure for `COP1(=S)c2c(C)nn(CCC#N)c2N=C(c2ccc(F)cc2)N1C` (stereo unspecified): inactive: 2.94%; for `O=C(O)C(=O)c1ccc(N(CCCl)CCCl)cc1`: inactive: 0.329%; for `O=C(COc1ccccc1)OC1CN2CCC1CC2` (stereo unspecified): inactive: 6.07%.
With `O=C(Nc1ccncc1[N+](=O)[O-])c1ccc([N+](=O)[O-])cc1[N+](=O)[O-]`, the inhibition was inactive: -8.05%.
As to `O=C(OC1CN2CCC1CC2)c1cccc([N+](=O)[O-])c1` (stereo unspecified), the inhibition was inactive: 9.03%.
The same measure for `CSc1ccc(Nc2c([N+](=O)[O-])cc([N+](=O)[O-])cc2[N+](=O)[O-])cc1`: inactive: -0.555%; for `CCOC(=O)c1ccc(NC(=O)C(C)(CCl)SC)cc1` (stereo unspecified): inactive: -5.57%.
The same measure for `CCC(C)N(CC(C)C)C(=S)SC(NC(C)=O)C(Cl)(Cl)Cl` (stereo unspecified): inactive: -5.32%.
To `CCC1=CC2Cc3nc4ccc(Cl)cc4c(N)c3C(C1)C2` (stereo unspecified) belongs inactive: -10.4%; to `O=P1(Nc2ccccn2)COc2ccccc2OC1`, inactive: 13.4%; to `CCOP(=O)(NC(=NC(C)c1ccccc1)NC(C)c1ccccc1)OCC` (stereo unspecified), inactive: 8.12%.
Consider `CN(CCCl)Cc1cc(Cl)c(NC2=NCCN2)c(Cl)c1`, for which the inhibition was inactive: -0.561%.
To `CCOP(=O)(Nc1ccc(C)cn1)OCC` belongs inactive: 9.04%; to `Clc1n[nH]nc1-c1nn[nH][15n]1`, inactive: 2.57%; to `O=P1(N(CCCl)CCCl)NCCC(C(F)(F)F)O1` (stereo unspecified), inactive: -4.9%.
To `CC(C)(C)C(=O)NC(Sc1ncccn1)C(Cl)(Cl)Cl` (stereo unspecified) belongs inactive: -3.06%.
To `COc1ccccc1CNC(=O)COC(=O)C(O)(c1ccccc1)c1ccccc1` belongs inactive: -7.68%; to `CN(C(=O)Cc1ccc(Cl)c(Cl)c1)[C@@H]1CCCC[C@H]1N1CCCC1`, inactive: -3.87%; to `CC(C)/C=N\N=C(\N)N[N+](=O)[O-]`, inactive: -0.638%.
As for `CC1(CBr)Cn2c(nc3ccccc3c2=O)S1` (stereo unspecified), the inhibition was inactive: 1.86%.
The same measure for `Cc1nn(-c2ccccc2)c2c1P(=O)(N1CCOCC1)N(C)C(c1ccccc1)=N2` (stereo unspecified): inactive: 6.47%; for `Cc1ccc(C(=O)OC2CN3CCC2CC3)cc1` (stereo unspecified): inactive: 6.81%.
To `CC1CCC(C(C)C)C(OP(=O)(Nc2ccccn2)c2ccccc2)C1` (stereo unspecified) belongs inactive: -4.3%; to `CN(C)C1(CNC(=O)c2ccc(S(C)(=O)=O)cc2)CCCCC1`, inactive: -3.93%; to `O=C(/C=C/c1ccccc1)OC1CN2CCC1CC2` (stereo unspecified), inactive: -0.546%.
For `CCCC1OP(=O)(Nc2ccccc2)OCC1CC` (stereo unspecified), the inhibition is inactive: -0.033%.
The same measure for `O=P1(Nc2ncccn2)COc2ccccc2OC1`: inactive: -8.36%.
Take `Nc1cccc([As](=O)(O)c2ccccc2)c1`: the inhibition is inactive: -0.659%.
`NS(=O)(=O)c1cccc(NC(=O)COC(=O)C(O)(c2ccccc2)c2ccccc2)c1`: the inhibition is inactive: -6.52%.
To `O=P1(Nc2ccc(Br)cn2)COc2ccccc2OC1` belongs inactive: 5.49%.
The same measure for `Cc1ccc(OCC(=O)OC2CN3CCC2CC3)cc1` (stereo unspecified): inactive: 2.94%; for `O=[As](O)(c1cccs1)c1cccs1`: inactive: 3.31%.
The same measure for `CCOP1(=S)c2c(C)nn(CCC#N)c2N=C(c2ccccc2F)N1C` (stereo unspecified): inactive: -3.22%.
As to `O=P(Nc1nccs1)(c1ccccc1)c1nc2ccccc2s1` (stereo unspecified), the inhibition was inactive: 0.909%.
To `O=P(Nc1nccs1)(Oc1ccccc1)Oc1ccccc1` belongs inactive: -1.9%; to `CS(=O)(=O)c1cc([N+](=O)[O-])c2no[n+]([O-])c2c1`, inactive: -2.66%; to `O=C(O)COc1ccc([As](=O)(O)O)cc1[N+](=O)[O-]`, inactive: -5.63%.
To `Nc1ccccc1[As](=O)(O)c1ccccc1` belongs inactive: -0.165%.
Take `NC(=O)Nc1ccc([As](=O)(O)O)cc1`: the inhibition is inactive: 0.713%.
Consider `N#CCCN(C(=O)COC(=O)C(O)(c1ccccc1)c1ccccc1)c1ccc(F)cc1`, for which the inhibition is inactive: -2.81%.
To `CCOP1(=S)c2c(C)nn(CCC#N)c2N=C(c2ccc(F)cc2)N1C` (stereo unspecified) belongs inactive: 2.01%; to `CN(C(=O)Cc1ccccc1)[C@@H]1CC[C@]2(CCCO2)C[C@H]1N1CCCC1`, inactive: -5.03%.
To `CN(C)C(=O)c1cc([N+](=O)[O-])cc2c1-c1c(cc([N+](=O)[O-])cc1[N+](=O)[O-])C2=O` belongs inactive: -11.7%.
The same measure for `O=[N+]([O-])c1ccc2c(c1)nnn2O`: inactive: 0.966%; for `CN(C(=O)Cc1ccc(Cl)c(Cl)c1)[C@H]1CC[C@@]2(CCCO2)C[C@@H]1N1CCCC1`: inactive: 2.43%.
For the compound `O=C(OC1CN2CCC1CC2)c1ccc(Cl)cc1` (stereo unspecified), the inhibition is inactive: -13.4%.
For `COc1cc(C(=O)NCC2(N3CCOCC3)CCCCC2)cc(Cl)c1OC(C)C`, the inhibition is inactive: 3.11%.
The same measure for `O=[As](O)(O)c1cccnc1`: inactive: -5.22%.
The same measure for `CS(=O)(=O)c1ccc(Cl)c(NC(=O)COC(=O)C(O)(c2ccccc2)c2ccccc2)c1`: inactive: -0.032%.
Turning to `O=[As](O)(c1cccc(O)c1)c1cccc(O)c1`, the inhibition is inactive: -7.95%.
The same measure for `Cc1cccc(OCC(=O)OC2CN3CCC2CC3)c1` (stereo unspecified): inactive: 7.97%.
The same measure for `Cc1ccc(NCCc2c([N+](=O)[O-])cc([N+](=O)[O-])cc2[N+](=O)[O-])cc1`: inactive: -0.872%; for `Nc1cccc2c([As](=O)(O)O)cccc12`: inactive: -1.35%.
As for `CCCOP(=S)(Nc1nc(N)cc(=O)[nH]1)OCCC`, the inhibition is inactive: -6.4%.
For the compound `COc1cc(C2NCCC3(OCCO3)C2(C)C)cc(OC)c1OC` (stereo unspecified), the inhibition was inactive: -1.86%.
To `CCOP(=O)(Nc1cccc2ccccc12)OCC` belongs inactive: -6.19%.
